In article PMC9120013, “Ribosome inhibition by C9ORF72-ALS/FTD-associated poly-PR and poly-GR proteins revealed by cryo-EM” (Nature Communications, 2022):

System: E. coli 70S ribosomes
Test: Kinetic peptidyl transfer (puromycin) assay on E. coli 70S ribosomes
Assay type: biochemical
Details: source data of Fig. 3b; unit printed in the legend b16 only; n = 2; read-out: Ki, app of fMet-Pmn release from 70S
Protocol: The effects of GRn or PRn on peptide bond formation in E. coli ribosome were tested in an in vitro assay that reacts the 70S ribosome loaded with [^35S]-fMet-tRNA^fMet in the P-site with puromycin, an A-site tRNA mimic, and measures the release of the resulting dipeptide containing formyl-methionine covalently bonded to puromycin, as described. E. coli tRNA^fMet (Chemical Block) was aminoacylated with [^35S]-N-formyl-L-methionine (Perkin Elmer) as described. 70S ribosomes were prepared from E. coli (MRE600) as described. 70S ribosomes were stored in the ribosome-storage buffer (20 mM Tris-HCl, pH 7.0; 100 mM NH4Cl; 20 mM MgCl2) at –80 °C. […]
The kinetics of puromycin reaction on the 70S or 80S ribosomes were recorded and analyzed essentially as described. […] 600 μl of the extract were mixed with 3.5 ml of Econo-Safe scintillation cocktail (RPI), and the amount of released [^35S]-labeled dipeptide was measured for each time point using a scintillation counter (Beckman Coulter, Inc.).
All time progress curves were recorded in duplicates, using independently prepared 70S or 80S complexes. Reaction rates were calculated using single-exponential or double-exponential (80S complexes) regressions for different concentrations of PRn and GRn using GraphPad Prism 8. […]

N=C(N)NCCC[C@H](NC(=O)CNC(=O)[C@H](CCCNC(=N)N)NC(=O)CNC(=O)[C@H](CCCNC(=N)N)NC(=O)CNC(=O)[C@H](CCCNC(=N)N)NC(=O)CNC(=O)[C@H](CCCNC(=N)N)NC(=O)CNC(=O)[C@H](CCCNC(=N)N)NC(=O)CNC(=O)[C@H](CCCNC(=N)N)NC(=O)CNC(=O)[C@H](CCCNC(=N)N)NC(=O)CNC(=O)[C@H](CCCNC(=N)N)NC(=O)CNC(=O)[C@H](CCCNC(=N)N)NC(=O)CN)C(=O)O [GR10]
Ki: 634 nM
